Our source for the IC50 values is ChEMBL document CHEMBL1124014, “Synthesis of (aryloxy)alkylamines. 2. Novel imidazo-fused heterocycles with calcium channel blocking and local anesthetic activity” (J Med Chem, 1988).

By UniProt entry, the sequences of proteins in these tests, tags left out.
UniProt P15381, whole entry: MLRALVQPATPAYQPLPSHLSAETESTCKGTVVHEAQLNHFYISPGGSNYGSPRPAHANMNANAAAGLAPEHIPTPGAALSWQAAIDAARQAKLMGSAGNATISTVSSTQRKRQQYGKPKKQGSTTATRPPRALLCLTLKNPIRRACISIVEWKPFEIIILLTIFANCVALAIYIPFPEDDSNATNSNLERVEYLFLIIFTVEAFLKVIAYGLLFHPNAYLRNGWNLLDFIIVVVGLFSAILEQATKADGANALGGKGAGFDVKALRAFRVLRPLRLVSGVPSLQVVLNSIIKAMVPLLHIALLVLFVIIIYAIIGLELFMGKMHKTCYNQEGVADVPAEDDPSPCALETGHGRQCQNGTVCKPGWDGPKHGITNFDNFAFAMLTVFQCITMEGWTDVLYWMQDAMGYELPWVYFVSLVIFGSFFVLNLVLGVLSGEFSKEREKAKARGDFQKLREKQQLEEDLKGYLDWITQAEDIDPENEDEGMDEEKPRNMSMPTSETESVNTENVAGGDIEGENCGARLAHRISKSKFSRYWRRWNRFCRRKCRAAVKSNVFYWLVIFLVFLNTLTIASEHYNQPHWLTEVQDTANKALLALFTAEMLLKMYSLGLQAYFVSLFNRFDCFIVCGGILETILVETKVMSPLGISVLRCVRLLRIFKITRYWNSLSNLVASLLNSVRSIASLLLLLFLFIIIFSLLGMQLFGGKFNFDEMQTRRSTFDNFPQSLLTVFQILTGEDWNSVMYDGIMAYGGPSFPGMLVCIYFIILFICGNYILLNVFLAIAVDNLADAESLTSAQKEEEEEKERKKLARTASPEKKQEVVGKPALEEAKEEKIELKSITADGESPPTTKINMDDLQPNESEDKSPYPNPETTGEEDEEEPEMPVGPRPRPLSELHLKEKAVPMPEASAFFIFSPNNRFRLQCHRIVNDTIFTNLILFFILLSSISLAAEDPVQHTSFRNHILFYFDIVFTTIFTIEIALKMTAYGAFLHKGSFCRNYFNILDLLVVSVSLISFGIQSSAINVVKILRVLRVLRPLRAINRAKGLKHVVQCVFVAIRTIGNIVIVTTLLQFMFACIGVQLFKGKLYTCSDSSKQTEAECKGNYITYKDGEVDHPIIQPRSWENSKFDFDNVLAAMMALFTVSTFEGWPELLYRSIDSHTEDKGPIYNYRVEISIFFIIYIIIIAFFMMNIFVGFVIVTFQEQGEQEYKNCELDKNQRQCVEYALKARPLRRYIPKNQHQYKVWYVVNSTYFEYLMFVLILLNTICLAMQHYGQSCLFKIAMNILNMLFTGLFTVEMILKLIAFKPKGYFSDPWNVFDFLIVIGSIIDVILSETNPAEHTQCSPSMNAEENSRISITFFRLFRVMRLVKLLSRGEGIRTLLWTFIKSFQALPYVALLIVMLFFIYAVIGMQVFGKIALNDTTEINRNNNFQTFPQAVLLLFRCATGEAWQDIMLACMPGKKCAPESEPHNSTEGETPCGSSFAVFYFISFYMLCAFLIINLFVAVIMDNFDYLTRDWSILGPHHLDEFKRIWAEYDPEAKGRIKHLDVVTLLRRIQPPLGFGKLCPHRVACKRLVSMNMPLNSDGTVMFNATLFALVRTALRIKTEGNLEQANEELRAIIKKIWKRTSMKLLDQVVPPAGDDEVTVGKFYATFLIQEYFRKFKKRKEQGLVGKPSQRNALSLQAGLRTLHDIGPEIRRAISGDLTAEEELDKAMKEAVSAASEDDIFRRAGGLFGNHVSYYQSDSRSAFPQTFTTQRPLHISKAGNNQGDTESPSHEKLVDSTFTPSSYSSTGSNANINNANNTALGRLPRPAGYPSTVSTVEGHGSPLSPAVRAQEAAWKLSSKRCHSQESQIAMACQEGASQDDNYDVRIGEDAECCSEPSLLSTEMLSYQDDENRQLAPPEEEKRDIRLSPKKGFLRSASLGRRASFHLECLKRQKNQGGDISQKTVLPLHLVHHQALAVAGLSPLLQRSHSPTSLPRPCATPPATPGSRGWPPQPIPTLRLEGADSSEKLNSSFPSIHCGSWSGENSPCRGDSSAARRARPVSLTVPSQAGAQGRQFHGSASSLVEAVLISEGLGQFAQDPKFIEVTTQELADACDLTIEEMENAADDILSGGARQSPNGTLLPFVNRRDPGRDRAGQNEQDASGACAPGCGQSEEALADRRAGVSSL

In this assay the target is Voltage-dependent L-type calcium channel subunit alpha-1C (Oryctolagus cuniculus, UniProt P15381). Nature of the assay: Inhibition of [3H]nitrendipine binding to calcium channels in Rabbit cardiac muscle. Format: tissue-based, Muscle tissue.

For `COc1ccc(CCN(C)CCCC(C#N)(c2ccc(OC)c(OC)c2)C(C)C)cc1OC` (stereo unspecified), the IC50 (as a rule, the concentration that inhibits the measured activity by half) was determined as 1 µM.
